Measured values from patent US12030940B2, “Immunotherapeutic tumor treatment method” (Nektar Therapeutics, priority 2017, dated 2024).

Columns and labels:
[1] = tested on: STAT5 phosphorylation in lymphocytes; test: STAT5 phosphorylation in lymphocytes by flow cytometry after administration in mice; assay type: in vivo
Description: Conventional approaches, such as those involving radiolabeling a compound, administering it in vivo, and determining its clearance, may be used to determine whether a compound proposed to be a long-acting IL-2Rβ biased agonist is “long-acting”. For the purposes herein, the long-acting nature of an IL-2Rβ biased agonist is typically determined using flow cytometry to measure STAT5 phosphorylation in lymphocytes at various time points after administration of the agonist to be evaluated in mice. As a reference, the signal is lost by around 24 hours with IL-2, but is sustained for a period greater than that for a long-acting IL-2Rβ-biased agonist.

[2] = tested on: B16F10 mouse melanoma tumors; test: Immune cells in tumor microenvironment by flow cytometry, subcutaneous B16F10 melanoma mice; assay type: in vivo

Substance | time by which STAT5 phosphorylation signal is lost [1] | activated natural killer (NK) cells ([2]; 5 and 7 days after treatment initiation) | total and memory CD8 T cells as percentage of tumor-infiltrating lymphocytes ([2]; relative to vehicle) | CD4 cell percentages of tumor-infiltrating lymphocytes ([2]; relative to vehicle on day 5) | percentage of Tregs (FoxP3+ subset of CD4) in tumor ([2]; relative to vehicle, days 5, 7, 10) | duration of STAT5 phosphorylation signal [1]
IL-2: interleukin-2, unmodified reference for STAT5 phosphorylation signal and binding affinities | around 24 hours | – | – | – | – | –
(2,7-(bis-methoxyPEG10kD-carboxyamide)(9H-fluorene-9-yl)methyl N-carbamate)4-6interleukin-2 [RSLAIL-2] | – | increased | significant (P<0.05) and sustained | diminished | reduced percentage of Tregs at every time point | sustained over several days
